Measurements: PubChem BioAssay AID1259354 (Paczesny and Yang Labs, IUPUI and University of Michigan, 2018)
The entries are a selection whose mix differs from that of the whole data set. Inconclusive results are not listed. Activity calls are given as the source filed them. Rule as the data show it: active = inhibition above about 30%; inconclusive = mostly about 10% to 28%; inactive = weaker than that.

Chains of the proteins cited; added tags and fusions are not shown. Lines headed by an entry give the natural chain unless they say otherwise; changes in a name come on top.
UniProt Q01638: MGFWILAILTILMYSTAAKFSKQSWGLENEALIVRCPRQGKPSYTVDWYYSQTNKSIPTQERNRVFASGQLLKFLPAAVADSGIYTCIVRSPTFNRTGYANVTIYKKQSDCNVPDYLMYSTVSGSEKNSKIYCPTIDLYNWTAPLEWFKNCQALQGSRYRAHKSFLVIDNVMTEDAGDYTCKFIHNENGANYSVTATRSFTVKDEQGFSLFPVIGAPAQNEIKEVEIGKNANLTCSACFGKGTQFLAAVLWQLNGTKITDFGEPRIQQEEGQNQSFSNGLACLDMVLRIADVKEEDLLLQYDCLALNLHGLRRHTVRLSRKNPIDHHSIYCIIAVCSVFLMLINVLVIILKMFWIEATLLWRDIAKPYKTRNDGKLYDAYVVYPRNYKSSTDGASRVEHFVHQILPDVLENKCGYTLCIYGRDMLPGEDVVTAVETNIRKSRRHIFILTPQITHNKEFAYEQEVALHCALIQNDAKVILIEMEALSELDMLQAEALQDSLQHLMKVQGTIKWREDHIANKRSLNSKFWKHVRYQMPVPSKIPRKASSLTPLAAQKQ

These compounds were tested against Interleukin-1 receptor-like 1 (Homo sapiens) (UniProt Q01638) (assay: inhibitors of human ST2 (IL1RL1) binding to IL-33, primary screen, biochemical, AlphaLISA (AID 1259354)). Settings: AlphaLISA ST2-Fc/biotin-IL-33 interaction, 1 h; at 17 µM; stronger effect = higher value.

Compound | inhibition
O=[N+]([O-])c1cc2c(c([N+](=O)[O-])c1)-c1c(cc([N+](=O)[O-])cc1[N+](=O)[O-])C2=Cc1ccccc1O | active: 44%
O=[N+]([O-])c1ccc(-n2ncc3c([N+](=O)[O-])cc([N+](=O)[O-])cc32)cc1 | active: 49%
